miR-21 reporter: miR-21 reporter, rising signal | 340,000 tested, under 10 active | AID 2288 | HeLa miR-21 FLuc reporter, luciferase, 48 h | Potency, µM (titrated, usually from 38.3 µM), for inactives: at the highest dose reporter change, positive = more light; active = well fitted rising curve with a large enough effect; inconclusive = small, poorly fitted or top-dose-only effect; inactive = no such curve, though single readings can be large or run the other way;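 further: % of control where 0% means no effect; miR-21 action dims this reporter so a rising signal means less miR-21 action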
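Compounds were titrated across several concentrations (up to approximately 40 uM) and incubated 48 hours with HeLa miR-21-FLuc reporter cells (miR-21 target sequence downstream of FLuc, endogenous miR-21). Readout was firefly luciferase luminescence after lytic detection reagent.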
PI4K2A block: inhibitors of human PI4K2A | activity change, negative = inhibition, % at 76.9 µM | AID 1346378 | purified PI4K2A, ADP-Glo luminescence, 1 h; stronger effect = lower value | Q9BTU6 | 420,000 tested, 0.13% active; in the data active means activity change below about -50%; inconclusive means mostly about -30% to -49%;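 further: -100% = wells without enzyme as full effect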
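Compounds are screened against recombinant PI4K2A using PI as substrate and ATP, the latter dispensed at 300 microM. Reactions run one hour at ambient temperature before ADP-Glo detection; full inhibition defined by wells lacking enzyme.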
A549 viability: A549 cytotoxicity, counter-screen for Nrf2 inhibitors; AID 504648; 390,000 tested, 0.16% active; A549 ARE-Fluc cells, CellTiter-Fluor viability, 18-24 h; Potency, µM (series often up to 46 µM), for the others: at the highest dose activity change, negative = cytotoxicity, usual class: inhibitors; further: potency means the concentration at half of the fitted maximal effect; on the % scale 0 is the no-effect control and ±100 the full control effect
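A549 ARE-Fluc cells in 5% FBS OPTI-MEM, 5000 cells/well, rested 2 h then exposed to compounds in concentration-response for 18-24 h at 37 °C. Viability by CellTiter-Fluor fluorescence (Ex 405/Em 525) after 30 min; luciferase luminescence (BugLite, 15 min, RT) read afterwards.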
Nrf2 ARE act: activates Nrf2 signaling | AREc32 ARE-luciferase reporter (MCF7-derived line), luminescence, 24 h | Potency, µM (titrated, usually from 46.1 µM), without a hit: at the highest dose activation, hits mostly activators | 410,000 tested, 0.31% active | AID 624171; further: potency means the concentration at half of the fitted maximal effect; % of control where 0% means no effect; nearly all actives have a fitted effect of over 65% in size
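Reporter line AREc32 (ARE-Fluc), seeded overnight in OPTI-MEM with 5% FBS; compound pin-transferred, 24 hr at 37 deg C, 5% CO2; luminescent read-out.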
GALK inh: blocks human galactokinase activity; P51570; Purified GALK, Kinase-Glo residual ATP luminescence; Potency, µM (series often up to 57.5 µM), for the others: at the highest dose activity change, negative = inhibition, actives largely listed as inhibitors; 270,000 tested, 0.007% active; AID 1868; further: potency means the concentration at half of the fitted maximal effect; on the % scale 0 is the no-effect control and ±100 the full control effect
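Kinase-Glo Plus luminescence measured ATP left after a 1 h room-temperature reaction. The reaction used 5 nM GALK, 100 uM galactose and 35 uM ATP at pH 8.0 (20 mM HEPES, 5 mM MgCl2, 60 mM NaCl, 1 mM DTT, 0.01% BSA).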
Nrf2 block: Nrf2 pathway inhibition; A549 ARE-Fluc reporter, luciferase luminescence, 18-24 h; Potency, µM (highest dose often 46 µM), without a hit: top-dose activity change, negative = inhibition, usual class: inhibitors; 360,000 tested, 2.1% active; AID 504444; further: potency means the concentration at half of the fitted maximal effect; on the % scale 0 is the no-effect control and ±100 the full control effect; nearly all actives have a fitted effect of over 60% in size
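Two sequential reads on A549 ARE_Fluc cells exposed to compound for 18-24 h: a CellTiter-Fluor fluorescence read for viability, then a luciferase luminescence read for Nrf2/ARE activity.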
* = called active by the depositor; ? = inconclusive; . = no result. The list is not random: actives were taken first. Their share in the collection is about 2.2%. Unless noted, the call rests on the fitted dose curve; in most records, active means well fitted curve in the direction sought with a large enough effect; inconclusive means small, poorly fitted or top-dose-only effect, or another doubt; inactive means no such curve, though single readings can be large; an effect the other way counts as inactive or inconclusive.

SMILES,miR-21 reporter,PI4K2A block,A549 viability,Nrf2 ARE act,GALK inh,Nrf2 block
Cc1c(C(=O)N2CCN(c3ccc(F)cc3)CC2)sc2ncnc(N3CCN(c4ccccn4)CC3)c12,?,0,-16%,0%,4%,?
Cc1nc(N2CCN(c3ccccn3)CC2)c2c(C)c(C(=O)N3CCN(c4ccc(F)cc4)CC3)sc2n1,?,-2,-10%,3%,5%,18µM*
N#Cc1nc(Nc2cccc(C(F)(F)F)c2)nc(NC2CCCC2)n1,.,.,-4%,.,.,-6%
COc1ccc(-c2ccc3ncnc(NCC4CCCO4)c3c2)cc1OC (stereo not drawn),.,.,-13%,.,.,?
CC(=O)c1c(C)[nH]c(C(=O)CN2CCN(S(=O)(=O)c3ccccc3[N+](=O)[O-])CC2)c1C,.,-2,-8%,3%,.,21µM*
Fc1ccc(C(c2ccc(F)cc2)N2CCNCC2)cc1,.,2,.,.,.,.
CCOC(=O)[C@]12CCCCC/C=C\1N(CCc1ccc(Cl)cc1)C(=O)[C@H]2CC(=O)NCC12CC3CC(CC(C3)C1)C2,.,-8,.,.,.,.
CCCC(=O)OC12CCCN(C1)/C(=C/c1cccc(OC)c1)C2 (stereo not drawn),.,3,.,.,.,.
CC(C)Cc1ccc(C(C)/C=C2/CCC(CN3CCCCC3)C2=O)cc1 (stereo not drawn),.,19,17%,13µM*,.,-8%
Cc1ccnc(N(C(=O)c2cccs2)C(=O)c2cccs2)c1,-44%,-22,0%,10µM*,4%,5%
Nc1ccc([N+](=O)[O-])c(C(F)(F)F)c1,.,1,.,.,.,.
O=C(CSc1nc2ccccc2[nH]1)NN=Cc1c(F)cccc1Cl,.,-8,.,.,.,.
CC(C)COc1ccc(C(=O)Nc2ccc(NC(=O)c3ccco3)c(Cl)c2)cc1,-7%,-6,?,0%,1%,16µM*
CC(C)Oc1ccc(C(=O)Nc2ccc(NC(=O)c3ccco3)c(Cl)c2)cc1,-26%,5,-8%,1%,0%,?
Cn1c2cc(C#N)sc2c2cnn(Cc3ccccc3F)c(=O)c21,.,.,-4%,.,.,13%
Cn1cc(CCNC(=O)CC2C(=O)NCCN2Cc2cccc(Oc3ccccc3)c2)cn1 (stereo not drawn),-3%,-15,6%,0%,2%,15µM*
Cc1sc2nc(C(C)C)nc(SCC(=O)NC3CC3)c2c1C,-7%,-1,0%,-1%,-1%,17%
CCc1nc(SCC(=O)Nc2cc(OC)ccc2OC)c2c(C)c(C)sc2n1,-4%,-3,-22%,0%,0%,15µM*
CCOC(=O)c1cnc(SCC(=O)Nc2ccc(NC(C)=O)c(OC)c2)nc1N,-5%,?,0%,0%,2%,?
Cc1cc(NC(=O)CSc2nc(C(C)C)nc3sc(C)c(C)c23)no1,-6%,6,?,-1%,-4%,15µM*
CCc1nc(SCC(=O)Nc2nnc(CC)s2)c2c(C)c(C)sc2n1,-1%,0,4%,0%,2%,8%
CCOC(=O)c1cnc(SCC(=O)Nc2cc(OC)ccc2OC)nc1N,0%,-4,-18%,0%,2%,10µM*
C#C[C@]1(OC(C)=O)CC[C@H]2[C@@H]3CCC4=C/C(=N/O)CC[C@@H]4[C@H]3CC[C@@]21CC,.,-3,.,.,.,.
O=C(NCc1cccs1)C1CCCN(S(=O)(=O)c2ccccc2)C1 (stereo not drawn),.,4,.,.,.,.

Individual results from the results shown:
Entry of `CCc1nc(SCC(=O)Nc2cc(OC)ccc2OC)c2c(C)c(C)sc2n1` in miR-21 reporter: -4%
Entry of `CC(C)Oc1ccc(C(=O)Nc2ccc(NC(=O)c3ccco3)c(Cl)c2)cc1` in Nrf2 ARE act: 1%
Entry of `Cn1c2cc(C#N)sc2c2cnn(Cc3ccccc3F)c(=O)c21` in A549 viability: -4%
Entry of `C#C[C@]1(OC(C)=O)CC[C@H]2[C@@H]3CCC4=C/C(=N/O)CC[C@@H]4[C@H]3CC[C@@]21CC` in PI4K2A block: -3
Entry of `Cc1sc2nc(C(C)C)nc(SCC(=O)NC3CC3)c2c1C` in Nrf2 ARE act: -1%

Some of these compounds in order of number of heavy atoms, low to high.
SMILES,miR-21 reporter,PI4K2A block,A549 viability,Nrf2 ARE act,GALK inh,Nrf2 block
C#C[C@]1(OC(C)=O)CC[C@H]2[C@@H]3CCC4=C/C(=N/O)CC[C@@H]4[C@H]3CC[C@@]21CC,.,-3,.,.,.,.
CCOC(=O)c1cnc(SCC(=O)Nc2ccc(NC(C)=O)c(OC)c2)nc1N,-5%,?,0%,0%,2%,?
Cn1cc(CCNC(=O)CC2C(=O)NCCN2Cc2cccc(Oc3ccccc3)c2)cn1 (stereo not drawn),-3%,-15,6%,0%,2%,15µM*

Remaining list, next part.
SMILES,miR-21 reporter,PI4K2A block,A549 viability,Nrf2 ARE act,GALK inh,Nrf2 block
Cc1c(C)n(Cc2ccc(-c3ccccc3C(=O)O)cc2)c2ccc(C(=O)N[C@@H](C)c3ccc([N+](=O)[O-])cc3)cc12,.,-2,.,.,.,.
CN1C(=O)N(CC(=O)Nc2cccc(S(=O)(=O)N(C)c3ccccc3)c2)C(=O)C12CCCCC2,.,1,-8%,0%,.,-18%
CC1CCC2(CC1)NC(=O)N(CC(=O)Nc1cccc(S(=O)(=O)N3CCCCC3)c1)C2=O (stereo not drawn),.,1,-2%,-1%,.,18µM*
CCC1CCC2(CC1)NC(=O)N(CC(=O)Nc1cccc(S(=O)(=O)N(C)c3ccccc3)c1)C2=O (stereo not drawn),.,0,-1%,2%,.,16µM*
COC(=O)C[C@H]1CC[C@H]2[C@H](COc3ccc(NC(=O)C4CCOCC4)cc3C(=O)N2C)O1,.,2,.,.,.,.
COc1cccc(-c2c(C#N)c(N)nc3c2c(C)nn3-c2ccccc2)c1O,12%,1,?,4%,1%,26µM*
CC(=C/c1ccccc1)/C=N/NC(=O)c1nnn(-c2nonc2N)c1CN1CCC(C)CC1,8%,-4,-1%,2%,-2%,-6%
CC1CCN(Cc2c(C(=O)N/N=C/c3ccc(OC(C)C)cc3)nnn2-c2nonc2N)CC1,1%,1,?,4%,0%,23µM*
CC(/C=N/NC(=O)c1nnn(-c2nonc2N)c1CN1CCCCC1)=C\c1ccccc1,0%,-4,?,2%,-2%,5.2µM*
COc1cc(/C=N/NC(=O)c2nnn(-c3nonc3N)c2C(C)C)ccc1OCc1ccc(F)cc1,1%,-7,?,0%,4%,16µM*
O=C(Nc1ccc(Br)cc1)O[C@@H]1CC[C@@]23CCCN2C(=O)CCC[C@H]3C1,.,1,.,.,.,.
Cc1[nH]c2ccc(C(=O)N3CCN(c4cccc(Cl)c4)CC3)cc2c1C,13%,-6,?,-1%,-12%,?
CS(=O)(=O)c1ncc(Cl)c(C(=O)N2CCN(c3cccc(Cl)c3)CC2)n1,?,8,18µM*,-6%,.,7.3µM*
CCS(=O)(=O)c1ncc(Cl)c(C(=O)N2CCN(c3cccc(Cl)c3)CC2)n1,?,2,?,-6%,.,23µM*
Cc1ccc(OCc2nnc(SCC(=O)c3ccc(-c4ccccc4)cc3)n2Cc2ccco2)cc1,.,-2,.,.,.,.
CS(=O)(=O)N1CCN(c2ccccc2NC(=O)c2ccc([N+](=O)[O-])o2)CC1,7%,-4,0%,8.9µM*,-1%,-14%
CCC(=O)N1CCN(c2ccc(Cl)cc2NC(=O)c2ccc([N+](=O)[O-])o2)CC1,12%,-1,-5%,11µM*,-5%,-4%
CN1CCN(c2ccccc2NC(=O)c2ccc([N+](=O)[O-])o2)CC1,11%,-2,-14%,-2%,2%,-7%
O=C(Nc1cc(Cl)ccc1-n1cncn1)c1ccc([N+](=O)[O-])o1,.,-3,-5%,13µM*,.,10%
COC(=O)c1ccc(Cn2ccc3ccc(-c4ccc5ccn(C(=O)c6cccc(OC)c6)c5c4)cc32)cc1,.,7,.,.,.,.
